Test results published in PubChem BioAssay (NCI).
“And” between values parts separate entries of the source, which are not always exact repeats. Identical values can stand only once. The list shows a part of the results, in another mix than the full data.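 Single-concentration screen, 48 h exposure, 96-well plates. Endpoint: percent growth. Below 10 = active.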 The source made the active and inactive calls.

Assays:
Test in all cases: NCI-60 one-dose screen, 48 h (100 = growth as untreated, 0 = no growth, -100 = all killed)
Details in all cases: 10 µM
HCT-15 colon = test system: HCT-15 colon
HT29 colon = test system: HT29 colon
SNB-75 CNS = test system: SNB-75 CNS
SNB-19 CNS = test system: SNB-19 CNS
U251 CNS = test system: U251 CNS
PC-3 prostate = test system: PC-3 prostate
SK-MEL-5 melanoma = test system: SK-MEL-5 melanoma
UACC-62 melanoma = test system: UACC-62 melanoma
LOX IMVI melanoma = test system: LOX IMVI melanoma
SK-MEL-28 melanoma = test system: SK-MEL-28 melanoma

Structure (SMILES)	growth (HCT-15 colon)	growth (HT29 colon)	growth (SNB-75 CNS)	growth (SNB-19 CNS)	growth (U251 CNS)	growth (PC-3 prostate)	growth (SK-MEL-5 melanoma)	growth (UACC-62 melanoma)	growth (LOX IMVI melanoma)	growth (SK-MEL-28 melanoma)
O=[N+]([O-])c1cc([N+](=O)[O-])c(Nc2ccc(Cl)cc2)c([N+](=O)[O-])c1	active: 7.61%	active: 2.84%	inactive: 51.1%	inactive: 34.7%	active: 2.89%	active: -4.61%	inactive: 81.4%	inactive: 44.9%	active: 5.78%	inactive: 81.4%
CN1CCN(CCOC(=O)C(O)(c2ccccc2)c2ccccc2)CC1	inactive: 105%	inactive: 104%	inactive: 97.9%	inactive: 95.8%	inactive: 106%	inactive: 97.9%	inactive: 95.7%	inactive: 95.3%	inactive: 94.6%	inactive: 95.9%
O=[N+]([O-])N(CCN(CC(Br)([N+](=O)[O-])[N+](=O)[O-])[N+](=O)[O-])CC(Br)([N+](=O)[O-])[N+](=O)[O-]	inactive: 98.1%	inactive: 97.4%	inactive: 88.6%	inactive: 108%	inactive: 96.4%	inactive: 96.7%	inactive: 101%	inactive: 103%	inactive: 88.7%	inactive: 111%
O=[N+]([O-])OCC(O[N+](=O)[O-])C(CO[N+](=O)[O-])O[N+](=O)[O-] (stereo not given)	inactive: 105%	inactive: 120%	inactive: 115%	inactive: 112%	inactive: 120%	inactive: 99.7%	inactive: 116%	inactive: 108%	inactive: 99.9%	inactive: 115%
O=[N+]([O-])c1cc([N+](=O)[O-])c(O)c([N+](=O)[O-])c1.c1ccnnc1	inactive: 96.9%	inactive: 96.7%	inactive: 83%	inactive: 101%	inactive: 100%	inactive: 98.2%	inactive: 102%	inactive: 99.2%	inactive: 102%	inactive: 106%
CCOP(=O)(CC)OCC	inactive: 93.1%	inactive: 111%	inactive: 80.5%	inactive: 95.8%	inactive: 94.5%	inactive: 96.6%	inactive: 101%	inactive: 96.1%	inactive: 99.3%	inactive: 103%
O=[N+]([O-])N(CCOC(N(F)F)(N(F)F)N(F)F)CC([N+](=O)[O-])([N+](=O)[O-])[N+](=O)[O-]	inactive: 103%	inactive: 105%	inactive: 97.9%	inactive: 103%	inactive: 98.1%	inactive: 103%	inactive: 103%	inactive: 107%	inactive: 98.4%	inactive: 109%
O=C1N([N+](=O)[O-])CCN1[N+](=O)[O-]	inactive: 96.9%	inactive: 111%	inactive: 84.8%	inactive: 104%	inactive: 95.8%	inactive: 94.3%	inactive: 103%	inactive: 105%	inactive: 98.8%	inactive: 94.4%
CC(C)N1CCN(CCOC(=O)C(O)(c2ccccc2)c2ccccc2)CC1	inactive: 104%	inactive: 97.9%	inactive: 91.3%	inactive: 107%	inactive: 97.2%	inactive: 77.1%	inactive: 99.5%	inactive: 104%	inactive: 94.2%	inactive: 104%
CCOC(=O)Nc1c([N+](=O)[O-])cc([N+](=O)[O-])cc1[N+](=O)[O-]	inactive: 89.1%	inactive: 111%	inactive: 103%	inactive: 114%	inactive: 98.9%	inactive: 88.6%	inactive: 95.4%	inactive: 94.7%	inactive: 85.6%	inactive: 111%
Nc1cccc(Cl)c1.O=[N+]([O-])c1cc([N+](=O)[O-])c(O)c([N+](=O)[O-])c1	inactive: 97.4%	inactive: 100%	inactive: 138%	inactive: 90.6%	inactive: 104%	inactive: 85.5%	inactive: 98.8%	inactive: 93.5%	inactive: 88.1%	inactive: 99.9%
CP(=O)(OCCCl)N(CCCl)CCCl (stereo not given)	inactive: 89.9%	inactive: 79.2%	inactive: 88.1%	inactive: 102%	inactive: 104%	inactive: 101%	inactive: 101%	inactive: 104%	inactive: 106%	inactive: 102%
O=C(O)C1(O)c2ccccc2-c2ccccc21	inactive: 102% and inactive: 99.1%	inactive: 82.2% and inactive: 104%	inactive: 128%	inactive: 86.8% and inactive: 99.8%	inactive: 96% and inactive: 97.7%	inactive: 89%	inactive: 98% and inactive: 101%	inactive: 91.8% and inactive: 91.5%	inactive: 96%	inactive: 119% and inactive: 104%
CN(CCO)CCCl.O=[N+]([O-])c1cc([N+](=O)[O-])c(O)c([N+](=O)[O-])c1	inactive: 95.6%	inactive: 99.8%	inactive: 96.2%	inactive: 101%	inactive: 96.8%	inactive: 91.9%	inactive: 99.4%	inactive: 89.5%	inactive: 97%	inactive: 103%
Cc1c([N+](=O)[O-])cc([N+](=O)[O-])c(Br)c1[N+](=O)[O-]	active: -35.4%	active: -46.9%	inactive: 86.1%	inactive: 88.9%	active: -2.38%	inactive: 90%	inactive: 96.1%	inactive: 88.6%	inactive: 48.8%	inactive: 106%
CC[N+]([O-])(CC)Cc1ccccc1.O=[N+]([O-])c1cc([N+](=O)[O-])c(S(=O)(=O)O)c([N+](=O)[O-])c1	inactive: 94.9%	inactive: 111%	inactive: 85.9%	inactive: 109%	inactive: 96.6%	inactive: 96.6%	inactive: 97.5%	inactive: 98.3%	inactive: 93.7%	inactive: 106%
COC(=O)C(O)(c1ccccc1)c1ccccc1	inactive: 102%	inactive: 112%	inactive: 98.4%	inactive: 97.2%	inactive: 102%	inactive: 95.9%	inactive: 99.9%	inactive: 90.6%	inactive: 99.8%	inactive: 104%
COc1ccc(C(O)(C(=O)OCCN2CCCCC2)c2ccc(OC)cc2)cc1	inactive: 97.1%	inactive: 111%	inactive: 98.8%	inactive: 103%	inactive: 96.3%	inactive: 95%	inactive: 97.9%	inactive: 97.9%	inactive: 95.8%	inactive: 106%
Nc1cc([N+](=O)[O-])cc([N+](=O)[O-])c1O	inactive: 98.3% and inactive: 99.6%	inactive: 107% and inactive: 99.3%	inactive: 94.4% and inactive: 88%	inactive: 88.3% and inactive: 108%	inactive: 100% and inactive: 97.7%	inactive: 100% and inactive: 79.4%	inactive: 111% and inactive: 97.2%	inactive: 96.5% and inactive: 105%	inactive: 99.6% and inactive: 97.2%	inactive: 108% and inactive: 110%
CCCOP(=S)(Cl)OCCC	inactive: 99.3%	inactive: 106%	inactive: 85.2%	inactive: 99.3%	inactive: 98%	inactive: 94.4%	inactive: 102%	inactive: 96.1%	inactive: 97%	inactive: 109%
NC(=NCCN/C(N)=N/[N+](=O)[O-])N[N+](=O)[O-]	inactive: 97.1%	inactive: 90.2%	inactive: 86.5%	inactive: 97.3%	inactive: 105%	inactive: 87%	inactive: 104%	inactive: 106%	inactive: 94.9%	inactive: 113%
CN/C(N)=N/[N+](=O)[O-]	inactive: 92.7%	inactive: 96%	inactive: 84.5%	inactive: 105%	inactive: 112%	inactive: 97.8%	inactive: 108%	inactive: 103%	inactive: 102%	inactive: 106%
n1nc(-c2nn[nH]n2)n[nH]1	inactive: 108%	inactive: 107%	inactive: 106%	inactive: 98.3%	inactive: 101%	inactive: 109%	inactive: 109%	inactive: 98.9%	inactive: 102%	inactive: 114%
CCCCCCCOP(=O)(CC)OCCCCCCC	inactive: 104%	inactive: 103%	inactive: 80.4%	inactive: 95.1%	inactive: 99.7%	inactive: 97.6%	inactive: 99.9%	inactive: 96.3%	inactive: 94.5%	inactive: 100%
NN/C(N)=N/[N+](=O)[O-]	inactive: 105%	inactive: 108%	inactive: 51.4%	inactive: 104%	inactive: 102%	inactive: 109%	inactive: 106%	inactive: 101%	inactive: 95.9%	inactive: 107%
Nc1cc([As](Cl)Cl)cc(N)c1O	inactive: 69.5%	inactive: 67.3%	inactive: 75.1%	inactive: 99.2%	inactive: 11.9%	inactive: 74.9%	inactive: 72.8%	inactive: 71.7%	inactive: 63.1%	inactive: 85.5%
